System: juvenile guppies each infected with 10-40 individuals of G. turnbulli
Assay: Host mortality / toxicity to fish in Trial 3
Conditions: shoals of 3 juvenile guppies, daily treatment for 7 days, low number of replicates

## C=CCSSCC=C [Allyl disulphide, allyl disulphide]
  Host mortalities (%) Trial 3: 33%
